Some compounds may have been tested in ways that are not shown here.
How the values were obtained:
[1] = cited from earlier work
[2] = target: human serum albumin (HSA) (Homo sapiens, UniProt P02768); assay: Surface plasmon resonance binding to immobilized HSA; details: SPR, 25 °C, HBS-EP pH 7.4, ligand HSA

The chains behind the UniProt entries cited, without tags or fusion partners. Residues count along the entry.
UniProt P02768, 25-609 limits assumed: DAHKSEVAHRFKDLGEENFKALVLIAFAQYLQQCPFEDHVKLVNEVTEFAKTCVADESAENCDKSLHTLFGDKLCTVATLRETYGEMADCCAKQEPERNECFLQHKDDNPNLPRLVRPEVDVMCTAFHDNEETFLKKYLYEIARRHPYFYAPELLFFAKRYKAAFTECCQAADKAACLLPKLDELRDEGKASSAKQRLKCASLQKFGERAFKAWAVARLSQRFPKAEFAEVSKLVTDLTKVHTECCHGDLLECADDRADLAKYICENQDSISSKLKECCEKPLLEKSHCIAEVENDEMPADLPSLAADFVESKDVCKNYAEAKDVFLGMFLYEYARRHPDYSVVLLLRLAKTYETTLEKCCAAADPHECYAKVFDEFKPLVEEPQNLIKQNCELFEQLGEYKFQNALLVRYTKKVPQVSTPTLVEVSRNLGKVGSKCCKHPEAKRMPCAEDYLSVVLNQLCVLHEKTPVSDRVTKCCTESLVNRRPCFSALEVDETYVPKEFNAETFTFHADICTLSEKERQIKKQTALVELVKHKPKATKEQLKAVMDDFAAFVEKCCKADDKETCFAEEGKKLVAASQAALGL

CCC(=O)N(c1ccccc1)C1CCN(CCc2ccccc2)CC1.O=C(O)CC(O)(CC(=O)O)C(=O)O
pKa [1]: 8.43 | KA [2]: 2.24 ± 1.82 × 10^5 M^−1 | ka [2]: 4.76 ± 6.62 × 10^3 M^−1 × s^−1 | kd [2]: 2.02 ± 1.41 × 10^−2 s^−1

— PMC10060303, “Interactions of fentanyl with blood platelets and plasma proteins: platelet sensitivity to prasugrel metabolite is not affected by fentanyl under in vitro conditions” (2023)
